According to paper PMC4295023 (Investigational New Drugs, 2014):

Assay: Pharmacokinetic analysis of blood samples (noncompartmental)
Format: in vivo, human
Conditions: sorafenib, steady state (cycle 2), HCC patients, tivantinib 360 mg BID and sorafenib 400 mg BID
Description: Blood samples were collected pre-, 1, 2, 4, 6, 8, 12, and 24 h post-dose on Days 1 and 2 of Cycles 1 and 2. The day before and on the day of PK sampling, tivantinib and sorafenib were administered at the same time. Noncompartmental PK parameters were calculated using WinNonlin (Pharsight, Mountain View, CA).

CNC(=O)c1cc(Oc2ccc(NC(=O)Nc3ccc(Cl)c(C(F)(F)F)c3)cc2)ccn1 [sorafenib]
mean Cmax: 5,920 ± 2,526 ng/mL
